Experimental data taken from patent publication US20070160684A1, “Methods for increasing cancer cell chemosensitivity” (priority 2005, published 2007).

Key:
Pa-4/HMGA2 cells = test: FACS analysis after caffeine and Dox (G2/M, sub-G1); assay type: cell-based; details: 4 mM caffeine 1 hour, then 1 μM Dox and 4 mM caffeine 48 hours
Method: Pa-4 and Pa-4/HMGA2 cells were seeded at 50-80% confluency in 35 mm dishes and serum starved overnight to synchronize cell cycle. […] Following treatment, cells were fixed in 70% ethanol overnight, stained with 20 μg/ml propidium iodide, and subjected to FACS analysis.
Apoptosis was quantified by assessing sub-G1 cell populations.

Compound: Cn1c(=O)c2c(ncn2C)n(C)c1=O [caffeine]
- cell cycle distribution / cells in G2/M, single agent (Pa-4 cells; 4 mM caffeine or 1 μM Dox, 48 hours): had no effect on cell cycle distribution
- effect on Dox-induced apoptosis (Pa-4 cells; caffeine with Dox): did not increase the rate of Dox-induced apoptosis
- effect on Dox-induced G2/M arrest (Pa-4/HMGA2 cells): greatly reduced Dox-induced G2/M arrest
